Test results published in US5616716A, “(3-(5-ethoxypyridin)yl)-alkenyl 1 amine compounds” (priority 1996, dated 1997).

Protein sequences, listed by entry. Tags and fused reporters are not part of them. Residues count along the entry.
UniProt P04757, 26-499: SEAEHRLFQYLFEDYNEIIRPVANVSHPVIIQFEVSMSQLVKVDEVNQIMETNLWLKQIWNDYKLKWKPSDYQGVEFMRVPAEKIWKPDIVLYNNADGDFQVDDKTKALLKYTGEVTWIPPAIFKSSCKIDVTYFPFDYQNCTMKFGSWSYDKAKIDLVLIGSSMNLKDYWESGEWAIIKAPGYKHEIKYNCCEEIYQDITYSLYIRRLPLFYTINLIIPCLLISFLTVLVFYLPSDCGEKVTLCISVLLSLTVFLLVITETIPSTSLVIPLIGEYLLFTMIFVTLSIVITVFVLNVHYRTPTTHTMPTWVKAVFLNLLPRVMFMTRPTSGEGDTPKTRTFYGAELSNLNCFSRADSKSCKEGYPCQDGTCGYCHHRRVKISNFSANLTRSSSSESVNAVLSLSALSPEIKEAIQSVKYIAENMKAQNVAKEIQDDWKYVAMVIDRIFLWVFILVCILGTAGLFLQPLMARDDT
UniProt P12392, 21-495: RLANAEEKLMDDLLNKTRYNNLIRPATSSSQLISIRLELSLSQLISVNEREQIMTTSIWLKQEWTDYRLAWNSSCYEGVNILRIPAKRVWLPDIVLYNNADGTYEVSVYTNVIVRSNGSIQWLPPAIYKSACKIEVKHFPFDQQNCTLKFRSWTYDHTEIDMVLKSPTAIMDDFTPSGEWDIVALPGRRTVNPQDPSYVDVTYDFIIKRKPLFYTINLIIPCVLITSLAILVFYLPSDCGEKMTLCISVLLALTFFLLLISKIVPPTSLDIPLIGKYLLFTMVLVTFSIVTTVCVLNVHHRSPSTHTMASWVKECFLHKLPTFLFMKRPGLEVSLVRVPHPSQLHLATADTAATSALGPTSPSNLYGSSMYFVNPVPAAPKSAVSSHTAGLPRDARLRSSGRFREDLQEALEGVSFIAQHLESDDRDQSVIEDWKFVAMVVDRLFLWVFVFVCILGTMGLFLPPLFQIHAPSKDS

Assays:
nicotinic receptors = experiment: Binding of compounds to relevant receptor sites (inhibition of L-[^3 H]nicotine binding, rat brain membranes); set-up: species or system rat (Sprague-Dawley); conditions: inhibition of L-[^3 H]nicotine (10 nM) binding
Experimental: Rats (Sprague-Dawley) were maintained on a 12 hour light/dark cycle and were allowed free access to water and food supplied by Wayne Lab Blox, Madison, Wis. Animals used in the present studies weighed 200 to 250 g. Brain membrane preparations were obtained from brain tissue of either males or females.
Rats were killed by decapitation following anesthesia with 70% CO2. Brains were removed and placed on an ice-cold platform.
The incubation buffer was Krebs-Ringers HEPES containing 200 mM TRIS buffer, pH 7.5. The binding reaction was terminated by filtration of the protein containing bound ligand onto glass fiber filters (Micro Filtration Systems) that had been soaked in buffer containing 0.5 percent polyethyleneimine. Filtration vacuum was -50 to -100 torr. Each filter was washed five times with 3 ml of ice-cold buffer. […] Nonspecific binding was determined by inclusion of 10 uM nonradioactive nicotine in the incubations.
The inhibition of L-[^3 H]nicotine binding by test compounds was determined by including one of eight different concentrations of the test compound in the incubation.

[1] = target: T1, ganglionic-type neuronal nicotinic receptors (PC12) (Rattus norvegicus, UniProt P04757+P12392); type: cell-based; conditions: PC12, ^86 Rb^+ efflux; percentage of maximal activation induced by (S)-(-)-nicotine
T1 construct: Ganglionic effects were established on the rat pheochromocytoma clonal line PC12; endogenous in cells; host or cells: PC12 (rat pheochromocytoma)
Excerpt: Determination of Interaction with Ganglia
Ganglionic effects were established on the rat pheochromocytoma clonal line PC12, which is a continuous clonal cell line of neural crest origin derived from a tumor of the rat adrenal medulla expressing ganglionic-typeneuronal nicotinic receptors (see Whiting et al., Nature, Vol. 327, pp. 515-518 (1987); Lukas, J. Pharmacol. Exp. Ther., Vol. 251, pp. 175-182 (1989); Whiting et al., Mol. Brain Res., Vol. 10, pp. 61-70 (1990)). Discussion concerning the heterogeneity of nicotinic receptors subtypes is set forth in Lukas et al. Internatl. Review Neurobiol., Vol. 34, pp. 25-130 (1992). Acetylcholine nicotinic receptors expressed in rat ganglia share a very high degree of homology with their human counterparts. […]
Nicotinic acetylcholine receptor (nAChR) function was assayed using ^86 Rb^+ efflux according to a method described by Lukas et al., Anal. Biochem., Vol. 175, pp. 212-218 (1.988). […] The medium was removed and ^86 Rb^+ was quantitated using Cerenkov detection (see Lukas et al., Anal. Biochem., Vol. 175, pp. 212-218 (1988)). Specific ion efflux was determined as the difference in isotope efflux between total and non-specific efflux samples. Dose-response curves were plotted and the concentration resulting in half maximal activation of specific ion flux through nicotinic receptors determined for human muscle and rat ganglionic preparations (EC50).

SMILES: CNCC/C=C/c1cccnc1 [Sample No. C-2, (E)-metanicotine, reference compound]
- Ki (nicotinic receptors): 26 nM
- Ganglion Effect Emax [1]: 0%
